Data published in patent US7029695B2, “Therapeutic compositions containing glutathione analogs” (Telik, Inc., priority 2001, dated 2006).

Tests used:
[1] = drug/lipid 0.25, EPC/EPG (1/1), sucrose 300 mM
[2] = Measured characteristics of lipid microspheres (particle size, incorporation); format: physicochemical; conditions: lipid microsphere emulsion after 1.2 μm filter, 300 μg/mL
Excerpt: The product is then further emulsified by means of a manton gaulin type homogenizer.

Viscosity ([1]; lyophilization time 32 hr): Negligible | Viscosity ([1]; lyophilization time 40 hr): Negligible | Viscosity ([1]; lyophilization time 44 hr): Negligible | Viscosity ([1]; lyophilization time 54 hr): Viscous | Viscosity ([1]; lyophilization time 59 hr): Very | particle size of final emulsion [2]: approximately 220 nM
Substance: γ-Glutamyl-S(benzyl)cysteinyl-R-phenyl glycine diethyl ester hydrochloride [Compound 9]

Like-named read-outs stand apart in the source and are kept apart here.
